# Test results: PubChem BioAssay AID504333 (National Center for Advancing Translational Sciences (NCATS), 2011)
# By UniProt entry, the sequences of proteins in these tests, tags left out. Where a name states a change or a piece, a line headed by the entry shows the natural chain unless it says otherwise.
# UniProt Q9UIF8: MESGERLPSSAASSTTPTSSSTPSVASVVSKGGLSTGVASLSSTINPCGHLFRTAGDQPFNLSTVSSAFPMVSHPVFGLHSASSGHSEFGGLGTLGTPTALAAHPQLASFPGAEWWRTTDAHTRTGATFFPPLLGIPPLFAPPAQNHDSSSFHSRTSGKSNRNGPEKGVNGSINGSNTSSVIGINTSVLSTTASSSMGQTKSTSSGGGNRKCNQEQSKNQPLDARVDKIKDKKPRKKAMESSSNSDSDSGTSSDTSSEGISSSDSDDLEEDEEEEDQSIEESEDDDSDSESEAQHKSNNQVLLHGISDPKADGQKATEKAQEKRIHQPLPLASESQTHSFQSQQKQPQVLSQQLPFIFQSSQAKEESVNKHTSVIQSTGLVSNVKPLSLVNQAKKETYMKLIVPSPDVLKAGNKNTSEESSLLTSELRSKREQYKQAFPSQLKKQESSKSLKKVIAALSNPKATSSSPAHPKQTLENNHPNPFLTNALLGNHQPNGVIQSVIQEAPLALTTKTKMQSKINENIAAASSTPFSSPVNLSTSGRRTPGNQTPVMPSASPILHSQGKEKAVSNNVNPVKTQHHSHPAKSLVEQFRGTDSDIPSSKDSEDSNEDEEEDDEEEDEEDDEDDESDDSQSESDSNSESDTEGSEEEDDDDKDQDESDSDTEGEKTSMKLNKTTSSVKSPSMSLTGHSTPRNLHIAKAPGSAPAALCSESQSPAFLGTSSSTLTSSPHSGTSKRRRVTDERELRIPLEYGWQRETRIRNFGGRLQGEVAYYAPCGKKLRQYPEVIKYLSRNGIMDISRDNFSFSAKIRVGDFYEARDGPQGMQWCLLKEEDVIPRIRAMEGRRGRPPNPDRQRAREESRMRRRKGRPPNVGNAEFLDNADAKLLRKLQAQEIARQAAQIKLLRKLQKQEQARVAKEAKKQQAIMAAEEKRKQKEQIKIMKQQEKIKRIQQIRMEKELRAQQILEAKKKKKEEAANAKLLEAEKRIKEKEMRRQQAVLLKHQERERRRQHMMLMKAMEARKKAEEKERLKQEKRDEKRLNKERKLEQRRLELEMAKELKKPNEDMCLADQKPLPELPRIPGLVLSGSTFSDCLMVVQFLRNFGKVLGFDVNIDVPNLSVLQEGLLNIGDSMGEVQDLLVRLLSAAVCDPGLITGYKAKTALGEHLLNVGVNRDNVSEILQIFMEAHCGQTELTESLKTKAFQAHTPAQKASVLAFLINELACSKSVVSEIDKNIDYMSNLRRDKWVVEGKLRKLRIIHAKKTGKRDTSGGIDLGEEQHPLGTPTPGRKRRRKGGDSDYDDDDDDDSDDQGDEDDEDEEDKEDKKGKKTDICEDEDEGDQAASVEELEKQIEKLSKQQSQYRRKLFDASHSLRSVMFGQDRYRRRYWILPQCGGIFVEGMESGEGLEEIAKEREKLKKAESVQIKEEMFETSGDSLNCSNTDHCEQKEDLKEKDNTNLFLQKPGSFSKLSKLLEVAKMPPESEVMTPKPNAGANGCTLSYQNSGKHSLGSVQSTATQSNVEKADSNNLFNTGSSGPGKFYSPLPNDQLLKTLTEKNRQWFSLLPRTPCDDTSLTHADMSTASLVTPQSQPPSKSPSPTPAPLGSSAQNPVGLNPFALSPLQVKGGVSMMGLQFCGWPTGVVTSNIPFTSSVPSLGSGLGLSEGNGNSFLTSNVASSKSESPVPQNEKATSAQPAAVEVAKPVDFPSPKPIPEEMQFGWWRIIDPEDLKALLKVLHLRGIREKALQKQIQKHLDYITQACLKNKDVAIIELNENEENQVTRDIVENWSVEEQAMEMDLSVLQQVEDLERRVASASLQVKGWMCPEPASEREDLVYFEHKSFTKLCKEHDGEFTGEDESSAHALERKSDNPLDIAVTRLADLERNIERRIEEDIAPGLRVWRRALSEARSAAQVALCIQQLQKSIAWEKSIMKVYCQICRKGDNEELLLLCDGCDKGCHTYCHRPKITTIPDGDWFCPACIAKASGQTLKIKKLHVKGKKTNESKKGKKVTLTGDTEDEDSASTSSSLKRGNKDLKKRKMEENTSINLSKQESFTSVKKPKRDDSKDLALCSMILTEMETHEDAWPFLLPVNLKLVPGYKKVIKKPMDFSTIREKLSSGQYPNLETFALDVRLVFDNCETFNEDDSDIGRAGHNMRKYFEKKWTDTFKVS
# Most of the hits are listed elsewhere, so they are rarer here than in the full data. Results filed as inconclusive are left out. Activity calls are given as the source filed them. Calls follow the shape of the dose curve; as a rule, active = well fitted inhibition curve with a large enough effect; inconclusive = small, poorly fitted or top-dose-only effect; inactive = no such curve, though single readings can be large or run the other way.
# Target: Bromodomain adjacent to zinc finger domain protein 2B (Homo sapiens) (UniProt Q9UIF8)
# Assay: qHTS Assay for Inhibitors of BAZ2B; also: nearly all actives have a fitted effect of over 60% in size
# Settings: AlphaScreen BAZ2B-H3K14Ac peptide displacement; at 114 µM (top of the series)
# Description: BAZ2B (bromodomain adjacent to zinc finger domain, 2B) belongs to a family of ubiquitously expressed bromodomain containing proteins, which biological function has not yet been elucidated. […] The interaction of BAZ2B with ISWI mediated by the BAZ1 motif has recently been described. […] The protocol is based on the AlphaScreen (PerkinElmer) displacement assay developed by NCGC [5], but uses the peptide ligand Biot-H3K14Ac, a high affinity binding partner for BAZ2B, in an AlphaScreen format. Although AlphaScreen has significant advantages with its utility in a variety of epigenetic target assays, the primary screening data provided in this deposition should be used with caution due to the prevalence of screening artifacts. The top compound concentration tested was 110uM in this assay, which increases number of actives and potential artifacts. […] Yasgar, et al. Compound Management for Quantitative High-Throughput Screening. […] Inglese, et al. Quantitative high-throughput screening: a titration-based approach that efficiently identifies biological activities in large chemical libraries. […]
# To each well of a 1,536w plate, 2ul of BAZ2B protein (final 50nM) and 1ul biotinylated histone peptide acetylated at Lys14 [b-H3(5-23)K14Ac] […] Plates were read on an EnVision multilabel plate reader using the 1,536 plate HTS AlphaScreen aperture (excitation time 80 ms, measurement time 240 ms).
# % is scaled to controls: 0 for no effect and ±100 for the full control effect.
row,SMILES,"activity change, negative = inhibition"
1,CC(C)(C(=O)O)c1ccc(C(O)CCCN2CCC(C(O)(c3ccccc3)c3ccccc3)CC2)cc1 (stereo unspecified),inactive: 4.55%
